Data on one compound can be found in patent US8623885B2, “Fused tricyclic dual inhibitors of CDK 4/6 and FLT3” (Amgen Inc., priority 2011, dated 2014).

Sequences of proteins named here, by UniProt entry; tags and fusion partners are left off. A change or cut given only in a name is not applied to a line headed by its entry.
UniProt P11802: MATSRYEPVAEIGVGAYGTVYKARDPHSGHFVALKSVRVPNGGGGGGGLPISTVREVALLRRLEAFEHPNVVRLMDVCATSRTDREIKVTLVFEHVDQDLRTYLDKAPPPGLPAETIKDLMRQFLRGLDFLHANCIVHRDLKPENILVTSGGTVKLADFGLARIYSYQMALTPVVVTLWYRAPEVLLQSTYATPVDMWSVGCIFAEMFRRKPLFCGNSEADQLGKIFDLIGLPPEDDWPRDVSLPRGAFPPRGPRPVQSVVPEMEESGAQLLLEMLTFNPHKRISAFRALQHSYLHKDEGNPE

The experiment addresses CDK4/Cyclin D1 (Homo sapiens (Human), UniProt P11802). Put plainly: CDK4 filtration kinase assay. Particulars: CDK4/Cyclin D1, Rb fragment substrate, [33P]-ATP filtration assay. The experiment is classed as biochemical. As to the method: The CDK4 and CDK1 inhibitory activity of the CDK4/6-FLT3 inhibitors was determined with a filtration kinase assay. The compounds, kinase and substrate diluted in the kinase buffer (20 mM Tris, pH7.4, 50 mM NaCl, 1 mM DTT, 0.1% BSA) were sequentially added to a 96-well Multiscreen HTS filtration plate (Millipore). The final 100 μL reaction mixture in each well contained 0.3 μg of CDK4/Cyclin D1 or CDK1/Cyclin B (Cell Signaling Technology), 1 μg of Rb fragment (aa773-928, Millipore) for the CDK4 assay or 5 μg of histone H1 for the CDK1 assay and 1 μCi of [^33P]-ATP. The mixture was incubated at room temperature for 1 hour. The proteins in the reaction were then precipitated and washed with cold TCA solution using an aspiration/filtration vacuum system. The plates were dried at room temperature, and the retained radioactivity was measured by scintillation counting.
IC50 values of the compounds in the above assays were determined by non-linear regression analysis using Prism (GraphPad Software).

With `C[C@H]1CC[C@H](n2c3cnccc3c3cnc(Nc4ccc5c(n4)CCN(CCC(F)(F)F)C5)nc32)CC1` [Example 7, 9-((1r,4r)-4-Methylcyclohexyl)-N-(6-(3,3,3-trifluoropropyl)-5,6,7,8-tetrahydro-1,6-naphthyridin-2-yl)-9H-pyrido[4′,3′:4,5]pyrrolo[2,3-d]pyrimidin-2-amine], the IC50 is 52.4 nM.

As a reminder, the IC50 is the concentration at which inhibition is half-maximal.
